Laboratory results published in paper PMC7278358, “Kinetic parameters of human aspartate/asparagine–β-hydroxylase suggest that it has a possible function in oxygen sensing” (The Journal of Biological Chemistry, 2020).
Values joined by “and” are separate entries in the source; they are usually repeats but may differ in a detail not shown here. Identical values can stand only once.

Sequences of proteins named here, by UniProt entry; tags and fusion partners are left off. Residues count along the entry.
UniProt Q12797, 315-758 limits assumed: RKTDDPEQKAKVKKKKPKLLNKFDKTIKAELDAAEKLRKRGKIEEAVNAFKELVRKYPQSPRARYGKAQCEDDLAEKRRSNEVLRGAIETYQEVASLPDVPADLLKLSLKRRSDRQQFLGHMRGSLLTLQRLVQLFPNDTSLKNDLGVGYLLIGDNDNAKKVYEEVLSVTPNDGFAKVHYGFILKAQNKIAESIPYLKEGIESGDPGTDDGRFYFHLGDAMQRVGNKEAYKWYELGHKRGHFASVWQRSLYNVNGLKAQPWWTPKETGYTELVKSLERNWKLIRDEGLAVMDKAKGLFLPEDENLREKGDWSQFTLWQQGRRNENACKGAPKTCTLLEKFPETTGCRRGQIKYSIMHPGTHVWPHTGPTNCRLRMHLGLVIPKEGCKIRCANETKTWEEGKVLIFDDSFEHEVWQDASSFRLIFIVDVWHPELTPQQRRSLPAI

Columns and labels:
human His6–AspH315–758 [1] = biological target: T1, human His6–AspH315–758 (Homo sapiens, UniProt Q12797); experiment: AspH activity assay: SPE-MS time course of peptide hydroxylation; conditions: 0.1 μM His6–AspH315–758, 2.0 μM peptide, 100 μM LAA, 10 μM FAS, 10 μM 2OG, 50 mM HEPES pH 7.5, 20 °C; for time to complete hydroxylation: SPE-MS
Protocol: The substrate mixture (1.0 ml) containing 2.4 μM peptide, 120 μM LAA, 12 μM FAS, and 12 μM 2OG in 50 mM HEPES buffer (pH 7.5) was added into a well of a 2-ml volume 96-well assay plate (Greiner) at 20 °C under an ambient atmosphere. A blank sample was analyzed using a RapidFire RF 360 high-throughput sampling robot (Agilent) attached to an Agilent 6530 accurate mass quadrupole TOF mass spectrometer operated in the positive ionization mode. The enzyme mixture (0.2 ml), containing 0.6 μM His6–AspH315–758 in 50 mM HEPES buffer (pH 7.5), was then added to the well and thoroughly mixed. The RapidFire sampling robot was programmed to analyze 1 sample/min. The following SPE-MS conditions were used: assay samples were aspirated under vacuum for 0.4 s and loaded onto a C4 SPE cartridge. After loading, the C4 SPE cartridge was washed with 0.1% (v/v) aqueous formic acid to remove nonvolatile buffer salts (5 s, 1.5 ml/min). The peptide was then eluted from the SPE cartridge with 0.1% (v/v) aqueous formic acid in 85/15 (v/v) acetonitrile/water into the mass spectrometer (5 s, 1.25 ml/min). The SPE cartridge was re-equilibrated with 0.1% (v/v) aqueous formic acid (1 s, 1.25 ml/min). The mass spectrometer parameters were capillary voltage (3500 V), fragmentor voltage (150 V), gas temperature (350 °C), gas flow (12 liters/min). The m/z + 2 charge states of the substrate peptide and the product (hydroxylated) peptide were used to extract ion chromatogram data; peak areas were integrated using RapidFire Integrator software (Agilent). The data were exported into Microsoft Excel and used to calculate the percentage of conversion of the hydroxylation reaction using the equation: % conversion = 100 × (integral product peptide)/(integral substrate peptide + integral product peptide).

human His6–AspH315–758 [2] = biological target: T1, human His6–AspH315–758; experiment: AspH steady-state kinetics from initial hydroxylation rates (SPE-MS, Michaelis–Menten); format: biochemical; conditions: 20 μM FAS, 20 μM 2OG; for Km / vmax / kcat/Km / kcat: peptide as varied substrate, mean ± S.D., n = 3; for Km / vmax: 0.1 μM His6–AspH315–758, 100 μM LAA, 50 mM HEPES pH 7.5, 20 °C, SPE-MS; for kcat/Km / kcat / substrate concentration at which substrate inhibition was observed: 100 μM LAA, pH 7.5, 20 °C; for kcat: based on active enzyme 90.8 nM (2,4-PDCA titration)
Protocol: The reactions were monitored with a rate of 1 sample/25 s using the same SPE-MS configuration as described above. The data were analyzed as described above, and the slopes of the initial reaction rates (Fig. S6) were fitted to a Michaelis-Menten plot using nonlinear regression (GraphPad Prism 5). […] The reactions were monitored by SPE-MS with a rate of 1 sample/25 s using identical configurations as before. The data were analyzed as described, and the slopes of the initial reaction rates (Fig. […] The Morrison equation is as follows, where I is the inhibitor concentration, Ki is the dissociation constant of the inhibitor, ET is the total concentration of active enzyme, and vi/v0 is the fractional enzyme activity ([94]).

Hydroxylation t = 15 min (human His6–AspH315–758 [1]; % conversion by SPE-MS) | Hydroxylation t = 200 min (human His6–AspH315–758 [1]; % conversion by SPE-MS) | Km (human His6–AspH315–758 [2]) | vmax (human His6–AspH315–758 [2]) [µM/s] | kcat/Km (human His6–AspH315–758 [2]) [M⁻¹ s⁻¹] | kcat (human His6–AspH315–758 [2]) | time to complete hydroxylation (human His6–AspH315–758 [1]) | substrate concentration at which substrate inhibition was observed (human His6–AspH315–758 [2]) [µM] | Compound
∼20% | ∼85% | 36.5 µM | 0.0109 ± 0.0006 | 3300 ± 700 | 0.12 s⁻¹ and 0.12 ± 0.02 s⁻¹ | – | – | CC[C@H](C)[C@@H]1NC(=O)[C@H](Cc2ccccc2)NC(=O)[C@H](CC(N)=O)NC(=O)[C@H](CC(N)=O)NC(=O)[C@@H](C)NC(=O)CSC[C@@H](C(=O)N[C@@H](CO)C(=O)N[C@@H](CO)C(=O)N2CCC[C@H]2C(=O)N2CCC[C@H]2C(=O)N[C@@H](CCC(=O)O)C(=O)N[C@@H](Cc2ccc(O)cc2)C(=O)N[C@@H](Cc2ccccc2)C(=O)N[C@@H](CC(C)C)C(=O)N[C@@H](Cc2c[nH]cn2)C(N)=O)NC(=O)[C@H](Cc2ccccc2)NC(=O)[C@H](Cc2ccc(O)cc2)NC(=O)CNC(=O)CNC1=O
>95% | – | 1.7 µM and 1.71 µM | 0.0156 ± 0.0006 | 100000 ± 20000 | 0.17 s⁻¹ and 0.17 ± 0.03 s⁻¹ | less than 15 min | – | CC[C@H](C)[C@@H]1NC(=O)CNC(=O)[C@H](CC(=O)O)NC(=O)[C@H]([C@@H](C)CC)NC(=O)[C@@H](C)NC(=O)CSC[C@@H](C(=O)N[C@@H](CC(=O)O)C(=O)N[C@@H](CO)C(=O)N[C@@H](CCCNC(=N)N)C(=O)N[C@@H](CO)C(=O)NCC(=O)N[C@@H](Cc2c[nH]c3ccccc23)C(=O)N[C@@H](CCC(=O)O)C(=O)NCC(=O)N[C@@H](CCCNC(=N)N)C(N)=O)NC(=O)[C@H](CO)NC(=O)[C@H](Cc2ccccc2)NC(=O)[C@H](CO)NC(=O)CNC1=O
∼90% | – | 3 µM | 0.041 ± 0.007 | 150000 ± 50000 | 0.45 ± 0.10 s⁻¹ | less than 15 min | > 4 | CC(C)C[C@H](NC(=O)[C@H](CCC(=O)O)NC(=O)[C@H](Cc1ccc(O)cc1)NC(=O)CNC(=O)[C@@H]1CCCN1C(=O)[C@H](CCCNC(=N)N)NC(=O)[C@H](CO)NC(=O)[C@H](CO)NC(=O)[C@@H]1CSCC(=O)N[C@H](C)C(=O)N[C@@H](Cc2c[nH]cn2)C(=O)N[C@@H](CC(N)=O)C(=O)N[C@@H](Cc2ccc(O)cc2)C(=O)N[C@@H](C(C)C)C(=O)NCC(=O)NCC(=O)N[C@@H](Cc2ccc(O)cc2)C(=O)N[C@@H](Cc2ccccc2)C(=O)N1)C(=O)N[C@@H](CCC(N)=O)C(N)=O
>95% | – | 2.04 µM | 0.0228 ± 0.0043 | 120000 ± 50000 | 0.25 ± 0.06 s⁻¹ | less than 15 min | > 4 | CC(C)C[C@H](NC(=O)[C@H](CO)NC(=O)[C@H](Cc1c[nH]cn1)NC(=O)CNC(=O)[C@H](CCC(=O)O)NC(=O)[C@H](Cc1c[nH]c2ccccc12)NC(=O)[C@H](CO)NC(=O)[C@H](CCC(N)=O)NC(=O)[C@@H]1CSCC(=O)N[C@H](C)C(=O)N[C@@H](C(C)C)C(=O)N[C@@H](CC(N)=O)C(=O)N[C@@H]([C@@H](C)O)C(=O)N[C@@H](C)C(=O)NCC(=O)N[C@@H](CO)C(=O)N[C@@H](Cc2ccc(O)cc2)C(=O)N[C@@H](Cc2c[nH]c3ccccc23)C(=O)N1)C(=O)N[C@@H](CO)C(N)=O
